In this assay the target is T1, hMAO-A (Homo sapiens, UniProt P21397).
T1 construct: purchased Sigma-Aldrich
Kind of assay: Recovery by dilution assay, hMAO-A. It is filed as biochemical. Conditions: 40 min preincubation at 10x IC50, 100-fold dilution; vs negative control. How it is done:
The microplates were then incubated for 30, 40, 50, and 60 min. RLDR was added, and luminescence was measured as mentioned above.

Protein sequences, listed by entry. Tags and fused reporters are not part of them.
UniProt P21397, whole entry: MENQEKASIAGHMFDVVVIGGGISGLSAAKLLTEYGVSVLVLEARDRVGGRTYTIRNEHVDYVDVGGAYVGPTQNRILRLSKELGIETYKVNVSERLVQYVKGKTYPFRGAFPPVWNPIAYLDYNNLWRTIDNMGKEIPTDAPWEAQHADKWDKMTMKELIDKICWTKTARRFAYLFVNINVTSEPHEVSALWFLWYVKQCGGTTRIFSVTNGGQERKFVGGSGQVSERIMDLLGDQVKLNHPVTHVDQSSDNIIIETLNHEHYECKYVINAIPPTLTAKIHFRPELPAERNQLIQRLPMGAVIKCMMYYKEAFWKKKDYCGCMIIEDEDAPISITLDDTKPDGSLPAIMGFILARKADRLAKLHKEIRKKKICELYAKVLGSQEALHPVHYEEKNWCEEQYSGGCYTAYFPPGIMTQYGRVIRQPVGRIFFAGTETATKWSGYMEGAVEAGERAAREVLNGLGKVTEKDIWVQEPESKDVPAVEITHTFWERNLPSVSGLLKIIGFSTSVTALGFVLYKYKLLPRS

From publication PMC4826920 (Evidence-based Complementary and Alternative Medicine : eCAM, 2016) come the findings set out here.

As for `C#CCN(C)CCCOc1ccc(Cl)cc1Cl` [CLORG, Clorgyline, reference compound], the “hMAO-A residual catalytic rate after dilution to 0.1x IC50” value turned out to be 6%.
